Data on 13 compounds can be found in ChEMBL document CHEMBL3596175, “Synthesis and in vitro kinetic evaluation of N-thiazolylacetamido monoquaternary pyridinium oximes as reactivators of sarin, O-ethylsarin and VX inhibited human acetylcholinesterase (hAChE)” (2015).

Sequences of proteins named here, by UniProt entry; tags and fusion partners are left off. A change or cut given only in a name is not applied to a line headed by its entry.
UniProt P22303: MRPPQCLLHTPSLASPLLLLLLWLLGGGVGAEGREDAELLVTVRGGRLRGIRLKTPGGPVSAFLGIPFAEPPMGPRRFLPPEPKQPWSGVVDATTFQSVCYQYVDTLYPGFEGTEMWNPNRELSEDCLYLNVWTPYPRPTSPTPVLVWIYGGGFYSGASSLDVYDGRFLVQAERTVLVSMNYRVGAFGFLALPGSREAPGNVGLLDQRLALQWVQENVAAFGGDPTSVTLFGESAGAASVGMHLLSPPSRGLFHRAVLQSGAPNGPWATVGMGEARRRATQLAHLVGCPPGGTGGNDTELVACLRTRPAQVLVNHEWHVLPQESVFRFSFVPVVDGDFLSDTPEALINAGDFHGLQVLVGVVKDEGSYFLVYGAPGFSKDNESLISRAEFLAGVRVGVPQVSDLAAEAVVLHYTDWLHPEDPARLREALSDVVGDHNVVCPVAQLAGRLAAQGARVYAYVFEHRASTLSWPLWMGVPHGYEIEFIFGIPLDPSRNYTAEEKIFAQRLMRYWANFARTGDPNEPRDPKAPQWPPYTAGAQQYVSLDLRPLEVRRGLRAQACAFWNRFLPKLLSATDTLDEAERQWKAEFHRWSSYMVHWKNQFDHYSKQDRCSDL

Test [1] addresses Acetylcholinesterase (Homo sapiens) (UniProt P22303). Description: Reactivation of VX-inhibited human acetylcholinesterase assessed as reactivity rate constant incubated for 60 mins using ATChI substrate by DTNB dye based UV-visible spectrophotometry.
For test [2] the target is unchanged. As to the kind of experiment: Reactivation of O-ethylsarin-inhibited human acetylcholinesterase assessed as second order rate constant incubated for 60 mins using ATChI substrate by DTNB dye based UV-visible spectrophotometry.
Test [3] has the same target. Description: Reactivation of O-ethylsarin-inhibited human acetylcholinesterase assessed as reactivity rate constant incubated for 60 mins using ATChI substrate by DTNB dye based UV-visible spectrophotometry.
The target is the same in test [4]. Description: Reactivation of sarin-inhibited human acetylcholinesterase assessed as reactivity rate constant incubated for 60 mins using ATChI substrate by DTNB dye based UV-visible spectrophotometry.
Test [5] has the same target. As to the kind of experiment: Reactivation of sarin-inhibited human acetylcholinesterase assessed as second order rate constant incubated for 60 mins using ATChI substrate by DTNB dye based UV-visible spectrophotometry.
Test [6] shares this target. Description: Reactivation of VX-inhibited human acetylcholinesterase assessed as second order rate constant incubated for 60 mins using ATChI substrate by DTNB dye based UV-visible spectrophotometry.

On to `O=C(C[n+]1ccc(/C=N/O)cc1)Nc1nc(-c2ccccc2)cs1`, for which the Kr was found to be 0.057 min⁻¹ in test [1]; 20.8 M⁻¹ s⁻¹ in test [2]; 0.047 min⁻¹ in test [3]; 0.082 min⁻¹ in test [4]; 15.8 M⁻¹ s⁻¹ in test [5]; 45 M⁻¹ s⁻¹ in test [6].
Consider `COc1ccc(-c2csc(NC(=O)C[n+]3cccc(/C=N/O)c3)n2)cc1`, for which the Kr in test [1] is 0.097 min⁻¹; in test [4], 0.092 min⁻¹; in test [5], 2.33 M⁻¹ s⁻¹; in test [6], 14.2 M⁻¹ s⁻¹.
Regarding `CCOC(=O)c1csc(NC(=O)C[n+]2cccc(/C=N/O)c2)n1`, the Kr was found to be 0.054 min⁻¹ in test [1], 0.046 min⁻¹ in test [4], 10 M⁻¹ s⁻¹ in test [5] and 15.3 M⁻¹ s⁻¹ in test [6].
Consider `CCOC(=O)Cc1csc(NC(=O)C[n+]2ccc(/C=N/O)cc2)n1`, for which the Kr in test [1] came to 0.067 min⁻¹; in test [2] it was 34.2 M⁻¹ s⁻¹; in test [3], 0.072 min⁻¹; in test [4], 0.075 min⁻¹; in test [5] it was 26.7 M⁻¹ s⁻¹; in test [6] it was 86.5 M⁻¹ s⁻¹.
Regarding `O=C(C[n+]1ccc(/C=N/O)cc1)Nc1nccs1`, the Kr in test [1] was found to be 0.06 min⁻¹; in test [2], 44.3 M⁻¹ s⁻¹; in test [3], 0.08 min⁻¹; in test [4] it was 0.059 min⁻¹; in test [5] it was 15.8 M⁻¹ s⁻¹; in test [6] it was 65.3 M⁻¹ s⁻¹.
Take `O=C(C[n+]1cccc(/C=N/O)c1)Nc1nccs1`: the Kr was determined as 0.095 min⁻¹ in test [1]; 14.8 M⁻¹ s⁻¹ in test [2]; 0.079 min⁻¹ in test [3]; 0.076 min⁻¹ in test [4]; 11 M⁻¹ s⁻¹ in test [5]; 16 M⁻¹ s⁻¹ in test [6].
On to `CCOC(=O)Cc1csc(NC(=O)C[n+]2cccc(/C=N/O)c2)n1`, for which the Kr was 0.086 min⁻¹ in test [1]; 12.7 M⁻¹ s⁻¹ in test [2]; 0.079 min⁻¹ in test [3]; 0.074 min⁻¹ in test [4]; 11.3 M⁻¹ s⁻¹ in test [5]; 14.7 M⁻¹ s⁻¹ in test [6].
For `O=C(C[n+]1cccc(/C=N/O)c1)Nc1nc(-c2ccccc2)cs1`, the Kr in test [1] was determined as 0.094 min⁻¹; in test [2], 2.83 M⁻¹ s⁻¹; in test [5], 3.17 M⁻¹ s⁻¹; in test [6], 4.5 M⁻¹ s⁻¹.
Regarding `COc1ccc(-c2csc(NC(=O)C[n+]3ccc(/C=N/O)cc3)n2)cc1`, the Kr in test [1] worked out at 0.055 min⁻¹; in test [2], 11 M⁻¹ s⁻¹; in test [3], 0.059 min⁻¹; in test [4], 0.053 min⁻¹; in test [5], 10.5 M⁻¹ s⁻¹; in test [6], 12.5 M⁻¹ s⁻¹.
On to `Cc1ccc(-c2csc(NC(=O)C[n+]3ccc(/C=N/O)cc3)n2)cc1`, for which the Kr in test [1] was 0.067 min⁻¹; in test [2] it was 29.5 M⁻¹ s⁻¹; in test [3] it was 0.089 min⁻¹; in test [4], 0.07 min⁻¹; in test [5], 17.3 M⁻¹ s⁻¹; in test [6], 19.5 M⁻¹ s⁻¹.
As for `Cc1ccc(-c2csc(NC(=O)C[n+]3cccc(/C=N/O)c3)n2)cc1`, the Kr was determined as 0.056 min⁻¹ in test [1] and 6.33 M⁻¹ s⁻¹ in test [6].
Turning to `C[n+]1ccccc1C=NO`, the Kr in test [1] was 0.07 min⁻¹; in test [2] it was 36.5 M⁻¹ s⁻¹; in test [3], 0.076 min⁻¹; in test [4] it was 0.085 min⁻¹; in test [5], 49.2 M⁻¹ s⁻¹; in test [6], 65.3 M⁻¹ s⁻¹.
For the compound `CCOC(=O)c1csc(NC(=O)C[n+]2ccc(/C=N/O)cc2)n1`, the Kr in test [1] was 0.072 min⁻¹; in test [2], 71.8 M⁻¹ s⁻¹; in test [3], 0.063 min⁻¹; in test [4] it was 0.072 min⁻¹; in test [5] it was 28.3 M⁻¹ s⁻¹; in test [6] it was 70.5 M⁻¹ s⁻¹.
